# Test results: PubChem BioAssay AID485281 (National Center for Advancing Translational Sciences (NCATS), 2010)
# Protein sequences, listed by entry. Tags and fused reporters are not part of them. Residues count along the entry.
# UniProt P02791, 2-175 limits assumed: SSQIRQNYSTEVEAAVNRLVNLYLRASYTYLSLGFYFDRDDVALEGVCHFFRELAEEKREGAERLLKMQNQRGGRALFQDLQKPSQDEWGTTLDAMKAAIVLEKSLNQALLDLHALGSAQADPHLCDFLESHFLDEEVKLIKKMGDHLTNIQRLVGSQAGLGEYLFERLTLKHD
# The list shows a part of the results, in another mix than the full data. Inconclusive results are not listed. Active and inactive are the calls of the source. Calls come from the whole dose curve; as a rule, active = well fitted inhibition curve with a large enough effect; inconclusive = small, poorly fitted or top-dose-only effect; inactive = no such curve, though single readings can be large or run the other way.
# Biological target: Ferritin light chain (Equus caballus) (UniProt P02791)
# Assay: qHTS Assay for Identification of Novel General Anesthetics; note: nearly all actives have a fitted effect of over 20% in size
# Conditions: apoferritin/1-aminoanthracene competitive binding, fluorescence; at 77.5 µM (top of the series) unless noted
# % is set by controls: 0 for no effect and ±100 for the full control effect.
row,SMILES,"activity change, negative = displacement"
1,CCOC(=O)c1ccc(NP(C)(=O)Oc2ccccc2)cc1 (stereo not given),inactive: -3.24%
2,Cc1ccc(NP(C)(=O)Oc2ccccc2)c(C)c1 (stereo not given),inactive: -2%
3,COc1ccccc1OP(C)(=O)Nc1ccc(C)cc1 (stereo not given),inactive: -8.48%
4,COc1ccc(OP(C)(=O)Nc2cccc(F)c2)cc1 (stereo not given),inactive: -3.89%
5,COc1ccccc1OP(C)(=O)Nc1cc(Cl)ccc1C (stereo not given),inactive: -13.5%
6,Cc1cc(C)cc(OP(C)(N)=O)c1 (stereo not given),inactive: -3.41%
7,O=C(O)C1(O)c2ccccc2-c2ccccc21,inactive: -1.26%
8,O=C(O)C(O)(c1ccccc1)c1ccccc1,inactive: 7.77%
9,Cc1cccc(C)c1OP(C)(N)=O (stereo not given),inactive: 0.591%
10,CC(C)(C)c1ccc(OP(C)(=O)Nc2ccc(SC(F)(F)F)cc2)cc1 (stereo not given),inactive: 5.56%
11,CCN(CC)CCCOC(=O)C(O)(c1ccccc1)c1ccccc1,inactive: 1.9%
12,CCOP(C)(=S)SCC(=O)NC(C)C(=O)O (stereo not given),inactive: -2.15%
13,CCOC(=O)c1ccc(NP(C)(=O)Oc2ccc(OC)cc2)cc1 (stereo not given),inactive: 5.44%
14,CP(=O)(Nc1ccccn1)Oc1ccc(Cl)cc1 (stereo not given),inactive: -21.6%
15,Cc1cccc(C)c1OP(C)(=O)Nc1ccc(SC(F)(F)F)cc1 (stereo not given),inactive: -2.28%
16,CP(=O)(Nc1ccc(SC(F)(F)F)cc1)Oc1ccc(Cl)cc1 (stereo not given),inactive: -15.4%
17,Cc1cc(C)cc(OP(C)(=O)Nc2ccc(SC(F)(F)F)cc2)c1 (stereo not given),inactive: -4.37%
18,CCc1ccc(OP(C)(=O)N2CCN(c3ccc([N+](=O)[O-])cc3)CC2)cc1 (stereo not given),inactive: -13.9%
19,CP(=O)(NC(=O)Nc1ccccc1)Oc1ccccc1 (stereo not given),inactive: -9.86%
20,CP(=S)(Nn1cnnc1)Oc1ccccc1 (stereo not given),inactive: -6.61%
21,COc1ccccc1OP(C)(=O)Nc1ccccc1 (stereo not given),inactive: -4.97%
22,CP(=O)(Nc1ccccc1Br)Oc1ccccc1 (stereo not given),inactive: -15.1%
23,COc1ccccc1OP(C)(=O)Nc1c(C)cccc1C (stereo not given),inactive: -21.5%
24,CN1CCCCC1COC(=O)C1(O)c2ccccc2CCc2ccccc21 (stereo not given),inactive: -13.1%
25,CP(=O)(Nc1ccc(SC(F)(F)F)cc1)Oc1ccccc1 (stereo not given),inactive: 1.68%
26,O=[N+]([O-])c1cc([N+](=O)[O-])c(Nc2nnnn2CCO)c([N+](=O)[O-])c1,inactive: 9.05%
27,Cc1nc2ccc3ccccc3c2s1.O=[N+]([O-])c1cc([N+](=O)[O-])c(O)c([N+](=O)[O-])c1,inactive: -22.1%

row,SMILES,"activity change, negative = displacement"
1,O=[N+]([O-])c1cc([N+](=O)[O-])c(-n2nnc3ccccc32)c([N+](=O)[O-])c1,inactive: -21.4%
2,CC(C)N(CCCl)C(C)C,inactive: 0.682%
3,CP(=O)(Nc1cccc(Br)c1)Oc1ccccc1 (stereo not given),inactive: -5.44%
4,Cc1cc(C)cc(OP(C)(=O)Nc2ccccn2)c1 (stereo not given),inactive: -19%
5,Cc1ccc(C)c(NP(C)(=O)Oc2ccccc2)c1 (stereo not given),inactive: 4.96%
6,COc1ccccc1OP(C)(=O)Nc1cccc(Br)c1 (stereo not given),inactive: -9.94%
7,Cc1cc(C)cc(OP(C)(=O)Nc2ccc(C)cc2C)c1 (stereo not given),inactive: -19%
8,CCOC(=O)c1ccc(NP(C)(=O)Oc2cc(C)cc(C)c2)cc1 (stereo not given),inactive: 5.41%
9,O=[N+]([O-])OCC(CO[N+](=O)[O-])(CO[N+](=O)[O-])CO[N+](=O)[O-],inactive: 5.4%
10,CC1=NCCc2c1[nH]c1ccccc21.O=[N+]([O-])c1cc([N+](=O)[O-])c(O)c([N+](=O)[O-])c1,inactive: 25.9%
11,CCN(CC)CCCOC(=O)C(O)(c1ccccc1)C1CCCCC1 (stereo not given),inactive: -10%
12,CCCCCOc1ccc(NP(C)(=O)Oc2ccc(Cl)cc2Cl)cc1 (stereo not given),inactive: -17.5%
13,CP(=O)(Nc1ccccc1)Oc1ccc(F)cc1 (stereo not given),inactive: -6.5%
14,CCOC(=O)c1ccc(NP(C)(=O)Oc2ccc(F)cc2)cc1 (stereo not given),inactive: -3.11%
15,O=C(OCCN1CCN(CCOCc2ccccc2)CC1)C(O)(c1ccccc1)c1ccccc1,inactive: -12%
16,CC(C)c1ccc(OP(C)(=O)Nc2ccc(SC(F)(F)F)cc2)cc1 (stereo not given),inactive: -12.5%
17,CP(=O)(Nc1ccccc1F)Oc1ccccc1 (stereo not given),inactive: -13.7%
18,CP(=O)(Nc1ccc2c(c1)OCCO2)Oc1ccccc1 (stereo not given),inactive: -11.1%
19,CCN(CCCl)Cc1ccccc1C,inactive: -3.62%
20,Cc1ccccc1NP(C)(=O)Nc1ccccc1C,inactive: 1.83%
21,CP(=O)(Nc1ccc(SC(F)(F)F)cc1)Oc1ccc(F)cc1 (stereo not given),inactive: 3.67%
22,CCOP(C)(=S)SCC(=O)NC(C)(CC)C(=O)O (stereo not given),inactive: 2.46%
23,Cc1cc(-c2cccc3ccccc23)c(C)cn1.O=[N+]([O-])c1cc([N+](=O)[O-])c(O)c([N+](=O)[O-])c1,inactive: 2.24%
24,O=[N+]([O-])c1ccc(OP2(=O)COCCO2)cc1 (stereo not given),inactive: -0.699%
25,COc1ccc(OP(C)(=O)Nc2cccc(Br)c2)cc1 (stereo not given),inactive: -9%
26,COc1ccc(NP(C)(=O)Oc2ccccc2OC)cc1 (stereo not given),inactive: -5.13%
27,CN(C)CCOC(=O)C(O)(c1ccccc1)C1CCCCC1 (stereo not given),inactive: -0.903%

row,SMILES,"activity change, negative = displacement"
1,C/C1=C2N=C(/C=C3N=C(/C(C)=C4\[N-][C@@](C)([C@H]5N=C1[C@@](C)(CCC(=O)NC[C@H](C)OP(=O)([O-])O[C@@H]1[C@H](O)[C@H](n6cnc7cc(C)c(C)cc76)O[C@@H]1CO)[C@@H]5CC(N)=O)[C@](C)(CC(N)=O)[C@H]4CCC(N)=O)[C@@](C)(CC(N)=O)[C@@H]\3CCC(N)=O)C(C)(C)[C@@H]/2CCC(N)=O.[C-]#N.[Co+3],inactive: -7.58% [at 29.3 µM]
2,CP(=O)(OC12CC3CC(CC(C3)C1)C2)OC12CC3CC(CC(C3)C1)C2,inactive: -15.3%
3,CCOC(=O)c1ccc(NP(C)(=O)Oc2ccc(Cl)cc2)cc1 (stereo not given),inactive: -3.95%
4,CP(=O)(Nc1ccc(Cl)cc1)Oc1ccc(F)cc1 (stereo not given),inactive: -6.58%
5,CC(C)(C)c1ccc(OP(C)(=O)O)cc1,inactive: -8.56%
6,COc1ccccc1OP(C)(=O)Nc1ccccc1Br (stereo not given),inactive: -9.77%
7,CN(C)C(=O)c1c([N+](=O)[O-])cc([N+](=O)[O-])cc1[N+](=O)[O-],inactive: -3.52%
8,COc1ccc(OP(C)(=O)Nc2ccc(Br)cc2)cc1 (stereo not given),inactive: -6.65%
9,CCN(CC)CC(O)COC(=O)C(O)(c1ccccc1)C1CCCCC1 (stereo not given),inactive: -7.87%
10,CCc1ccc(OP(C)(=O)Nc2cccnc2)cc1 (stereo not given),inactive: -7%
11,CP(=O)(Oc1ccccc1)N1CCOC1=O (stereo not given),inactive: -5.29%
12,OCCSCCO,inactive: -0.446%
13,O=C(OCCCN1CCCC1)C(O)(c1ccccc1)C1CCCCC1 (stereo not given),inactive: 7.8%
14,COc1ccccc1OP(C)(=O)Nc1c(C)n(C)n(-c2ccccc2)c1=O (stereo not given),inactive: -11.5%
15,Cc1c(NP(C)(=O)Oc2ccc(C(C)C)cc2)c(=O)n(-c2ccccc2)n1C (stereo not given),inactive: -12.3%
16,CCc1ccc(OP(C)(=O)O)cc1,inactive: -1.03%
17,CP(=O)(Nc1ccccn1)Oc1ccccc1 (stereo not given),inactive: 6.34%
18,COc1ccccc1OP(C)(=O)Nc1ccc(Br)cc1 (stereo not given),inactive: -1.41%
19,CN(C)CCOC(=O)C(O)(c1ccccc1)C1CCCC1 (stereo not given),inactive: -5.88%
20,COc1ccc(OP(C)(=O)Nc2ccccn2)cc1 (stereo not given),inactive: 0.58%
21,Cc1nc2ccc3ccccc3c2o1.O=[N+]([O-])c1cc([N+](=O)[O-])c(O)c([N+](=O)[O-])c1,inactive: -20.2%
22,CP(=O)(OCCOc1ccccc1)OCCOc1ccccc1,inactive: -21.8%
23,CP(=O)(Nc1ccc(Cl)cc1Cl)Oc1ccccc1 (stereo not given),inactive: -11.8%
24,Cc1cc(C)cc(OP(C)(=O)Nc2cccc(C(F)(F)F)c2)c1 (stereo not given),inactive: -22.3%
25,COc1ccc(OP(C)(=O)Nc2ccccc2Br)cc1 (stereo not given),inactive: 1.26%
26,COc1ccccc1OP(C)(=O)Nc1ccc(C)c(C)c1 (stereo not given),inactive: -11%
